Assays:
[1] = target: T1, IL-1R1 on human cells (primary human chondrocytes; human whole blood) (human, UniProt P14778 18-569); test: cell-based or functional assay
T1 sequence (looked up): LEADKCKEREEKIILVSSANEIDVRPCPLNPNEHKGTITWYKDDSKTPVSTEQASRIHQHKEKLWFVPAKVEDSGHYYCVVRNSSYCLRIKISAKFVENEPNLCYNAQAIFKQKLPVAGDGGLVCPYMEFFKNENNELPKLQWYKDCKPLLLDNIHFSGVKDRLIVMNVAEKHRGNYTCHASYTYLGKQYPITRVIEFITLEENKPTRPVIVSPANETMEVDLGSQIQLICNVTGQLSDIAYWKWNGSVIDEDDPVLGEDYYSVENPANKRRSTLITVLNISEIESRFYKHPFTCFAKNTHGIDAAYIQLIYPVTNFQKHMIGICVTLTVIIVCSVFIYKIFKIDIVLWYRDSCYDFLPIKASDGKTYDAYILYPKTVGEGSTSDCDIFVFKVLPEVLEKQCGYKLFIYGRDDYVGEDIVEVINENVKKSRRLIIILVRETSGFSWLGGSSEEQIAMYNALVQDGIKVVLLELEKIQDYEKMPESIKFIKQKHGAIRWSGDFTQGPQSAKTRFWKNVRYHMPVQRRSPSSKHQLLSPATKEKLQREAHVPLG

[2] = target: T2, biotinylated IL-1R1 (recombinant, on streptavidin-coated beads) (UniProt P14778 18-336, limits assumed, biotinylated); test: ECL bead competition assay: ruthenium-IL-1RAcP (5 nM) binding to biotinylated IL-1R1 with IL-1β (1 nM), complex formation
T2 construct: also called receptor
T2 sequence (looked up): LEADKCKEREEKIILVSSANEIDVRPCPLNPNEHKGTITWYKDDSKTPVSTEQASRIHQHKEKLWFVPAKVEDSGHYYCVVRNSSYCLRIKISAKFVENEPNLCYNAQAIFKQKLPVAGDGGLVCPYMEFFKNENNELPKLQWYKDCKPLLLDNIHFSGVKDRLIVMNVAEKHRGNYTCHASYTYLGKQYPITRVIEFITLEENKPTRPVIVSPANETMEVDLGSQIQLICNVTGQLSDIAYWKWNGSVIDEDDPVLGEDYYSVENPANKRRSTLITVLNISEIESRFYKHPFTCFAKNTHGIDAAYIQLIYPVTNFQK

[3] = target: T1, IL-1R1 on human cells (primary human …); test: cell-based or functional assay; remark: listed apart in the source
[4] = target: T1, IL-1R1 on human cells (primary human …); test: cell-based or functional assay; remark: listed apart in the source

B1: Interleukin-1 receptor antagonist (IL-1ra) (ligand, human, UniProt P18510 26-177, looked up)
chain: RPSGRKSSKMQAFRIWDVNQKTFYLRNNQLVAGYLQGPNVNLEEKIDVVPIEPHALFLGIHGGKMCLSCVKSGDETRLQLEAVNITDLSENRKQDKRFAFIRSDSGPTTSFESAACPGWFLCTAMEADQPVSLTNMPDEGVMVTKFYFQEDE
modifications: ruthenium tag in Example 3
notes: also called rIl-1ra; rIL-1ra
With B1 the “IC50, inhibition of IL-1-induced IL-6 production in human whole blood, composite (pooled data)” value [1] was 0.264 nM, the “IC50, inhibition of IL-1-induced IL-6 production in human whole blood, donor 1047” value [1] was 0.241 nM and the “IC50, inhibition of IL-1-induced IL-6 production in human whole blood, donor 1319” value [1] was 0.381 nM. For the same binder, the IC50 [2] was 0.555 nM, the “IC50, inhibition of IL-1β induced IL-6 production in primary human chondrocytes (Table 4B)” value [3] was 0.02 nM and the “IC50, inhibition of IL-1β induced IL-6 production in primary human chondrocytes (Table 4A)” value [4] was 0.032 nM.
